In patent KR20130034043A, “폴리펩타이드” (애피바디 에이비, priority 2010, dated 2013):

Tested on: CD3+ CD4+ T 세포

재조합 인간 알부민: recombinant human albumin (Albucult, Novozymes), negative control
Number of responding individuals compared with buffer only: 2 명
